Assays:
[1] = target: T1, CB2 receptor (Rattus norvegicus, UniProt Q9QZN9); assay: 3H-WIN 55,212-2 binding displacement on RBL-2H3 cell membranes; settings: IC50 (nM), 1% DMSO, means ± SEM
T1 construct: 30 µg membrane proteins prepared in item a); endogenous in cells; host or cells: RBL-2H3 cells (plasma membrane preparation)
T1 sequence (Q9QZN9 1-360): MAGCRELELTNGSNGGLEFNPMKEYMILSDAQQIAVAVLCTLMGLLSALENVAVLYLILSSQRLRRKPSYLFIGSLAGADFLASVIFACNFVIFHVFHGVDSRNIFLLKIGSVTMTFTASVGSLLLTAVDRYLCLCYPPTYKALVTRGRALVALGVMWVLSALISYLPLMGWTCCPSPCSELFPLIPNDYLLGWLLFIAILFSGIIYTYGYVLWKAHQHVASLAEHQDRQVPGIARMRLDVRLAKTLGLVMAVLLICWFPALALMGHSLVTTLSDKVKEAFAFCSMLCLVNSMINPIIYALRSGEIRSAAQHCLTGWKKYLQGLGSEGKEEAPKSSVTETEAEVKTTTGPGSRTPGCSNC

[2] = system: RBL-2H3 cells; assay: 3H-serotonin release induced by ADNP/DNP.HSA immunogenic stimulation; type: cell-based, rat; settings: 25µM; 0.1% DMSO and 0.1% ethanol

CCCCC/C=C\C/C=C\C/C=C\C/C=C\CCCC(=O)NCCO [Anandamide, arachidonylethanolamide, reference compound]
IC50 [1]: 33 ± 29 nM

CCCCCc1cc(O)c2c(c1)OC(C)(C)C1CC=C(C)CC21 (centres unmarked) [Δ 8-THC, Δ8-tetrahydrocannabinol, reference compound]
3H-serotonin net release (%) [2]: 0%
